According to US20260027226A1 (Pheon Therapeutics Ltd, priority 2022, published 2026):

Assay: S9 liver studies, human and monkey (summary)
Conditions: human and cyno S9

In the case of Trastuzumab-DM1, the “Detected Metabolites in Liver Microsome S9 Studies” value is reported as “DM1”.
